Sampled rows, rich in hits. Any-hit rate of the full collection: about 2.8%.
esBAF inh = blocks esBAF chromatin remodeling in mouse ES cells; Bmi1-luciferase knock-in reporter, 24 h; 100% = twice the neutral-well signal; reporter increase, % at 12.5 µM; 350,000 tested, 2% active; AID 602393; in the data active = activation above about 40%; inconclusive = no clear call, values can overlap the other calls;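 also: a rise in the Bmi1 reporter signal indicates esBAF inhibition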
miR-122 sensor = blocks miR-122 activity in Huh7 sensor cells; AID 602342; activation (reporter increase), % at 12.5 µM; 340,000 tested, 0.3% active; Huh7 miR-122 Renilla luciferase sensor, 48 h; neutral wells = 0, positive control = 100;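 active = mean replicate activation score at least 90 and every replicate individually at or above 90; inconclusive = only one of the two criteria met; inactive = neither criterion met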;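 also: higher luciferase means less miR-122 activity so hits act as miR-122 inhibitors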
MITF TRPM1 HTS = increases MITF-driven TRPM1 promoter luciferase signal; activation, % at 12.5 µM; 300,000 tested, 0.75% active; SK-MEL-5 TRPM1-promoter luciferase, 24 h; % of positive control, neutral wells = 0;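 active = mean activation of at least 80% with every replicate also reaching 80%; inconclusive = mean reaches 80% but some replicate falls short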
Wnt bcat act = activates Wnt/beta-catenin signaling in a reporter cell assay | activation, % at 9.35 µM | 300,000 tested, 1.2% active | activator, plate reader; in the data active = activation above about 30%, passing the limit was not always enough; inconclusive = no clear call, values can overlap the other calls
UUG fidelity = modulators of start codon recognition fidelity in yeast; AID 602363; activity score, % at 18.7 µM; S. cerevisiae UUG-firefly luciferase reporter, luminescence/redox ratio; 0.13% of 350,000 active;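 active = replicate mean at a twofold rise or more, about +100% in these data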;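 note: firefly luciferase made from a UUG start codon reports start codon fidelity; reporter light over untreated wells divided by growth signal over untreated wells; some hits fall short of that in this replicate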
PglD inh = PglD (C. jejuni) enzyme inhibition | purified PglD enzyme, DTNB colorimetric CoA detection | inhibition, % at 12.5 µM | 360,000 tested, 0.098% active; in the data active = inhibition above about 16%, passing the limit was not always enough; inconclusive = no clear call, values can overlap the other calls
A number is an active result.

Results for COc1ccc(C2N=C(c3ccccc3)NO2)cc1OC (centres undefined) ?
esBAF inh: 52; miR-122 sensor: inactive; MITF TRPM1 HTS: inactive; Wnt bcat act: inactive; UUG fidelity: inactive; PglD inh: inactive

What do the screens show for `FC(F)Oc1ccc(C2N=C(c3ccccc3)NO2)cc1` (centres undefined)?
miR-122 sensor: inactive; MITF TRPM1 HTS: 117; Wnt bcat act: 34; UUG fidelity: inactive; PglD inh: inactive

How did CSc1ccccc1NC(=O)c1cc(C)on1 do in these assays?
esBAF inh: inactive; miR-122 sensor: inactive; MITF TRPM1 HTS: inactive; UUG fidelity: inactive; PglD inh: inactive

What do the screens show for `CN(C(=O)c1cc(-c2ccc3c(c2)OCO3)on1)c1ccccc1`?
esBAF inh: 68; MITF TRPM1 HTS: 101; Wnt bcat act: inactive; UUG fidelity: inactive; PglD inh: inactive

What do the screens show for `CC(C)CNC(=O)c1cc(-c2ccc3c(c2)OCO3)on1`?
esBAF inh: inactive; miR-122 sensor: inactive; Wnt bcat act: 35; UUG fidelity: inactive; PglD inh: inactive

Results for CSc1ccccc1NC(=O)c1cc(-c2ccc3c(c2)OCO3)on1 ?
esBAF inh: 48; MITF TRPM1 HTS: inactive; Wnt bcat act: inactive; UUG fidelity: inactive; PglD inh: inactive

How did O=C(Nc1cc(Br)ccc1O)c1cc(-c2ccc3c(c2)OCO3)on1 do in these assays?
esBAF inh: 46; miR-122 sensor: inactive; MITF TRPM1 HTS: inactive; Wnt bcat act: inactive; UUG fidelity: inactive; PglD inh: inactive

Results for O=C(Nc1cc(Br)ccc1O)c1cc(-c2cccs2)on1 ?
esBAF inh: inactive; MITF TRPM1 HTS: inactive; Wnt bcat act: inactive; UUG fidelity: inactive; PglD inh: inactive

What do the screens show for `C[C@H]1CN([C@@H](C)CO)C(=O)c2cccc(NC(=O)c3cnccn3)c2O[C@@H]1CN(C)C(=O)Nc1ccc(C(F)(F)F)cc1`?
esBAF inh: inactive; miR-122 sensor: inactive; UUG fidelity: inactive; PglD inh: inactive

Results for Cc1noc(C)c1S(=O)(=O)Nc1ccc2c(c1)C(=O)N([C@H](C)CO)C[C@@H](C)[C@@H](CN(C)C(=O)c1ccncc1)OCCCC[C@H](C)O2 ?
esBAF inh: inactive; miR-122 sensor: inactive; UUG fidelity: inactive; PglD inh: inactive

Results for Cc1ccc(NC(=O)c2c(Cl)n(C)c3ccccc23)cc1 ?
esBAF inh: 67; miR-122 sensor: inactive; MITF TRPM1 HTS: inactive

Results for Cn1c(=O)c(C(=O)NCc2ccccc2)c(O)c2ccccc21 ?
esBAF inh: 45; miR-122 sensor: inactive; Wnt bcat act: inactive; UUG fidelity: inactive; PglD inh: inactive

What do the screens show for `Cn1c(=O)c(C(=O)Nc2ncccc2O)c(O)c2ccccc21`?
esBAF inh: inactive; miR-122 sensor: inactive; MITF TRPM1 HTS: inactive; Wnt bcat act: inactive; UUG fidelity: inactive; PglD inh: inactive

Results for Cn1c(Cl)c(C(=O)Nc2ccccc2)c2ccccc21 ?
esBAF inh: inactive; miR-122 sensor: inactive; MITF TRPM1 HTS: inactive; UUG fidelity: inactive; PglD inh: inactive

How did Cc1ccc(NC(=O)c2c(O)c3ccccc3n(C)c2=O)nc1 do in these assays?
esBAF inh: 48; miR-122 sensor: inactive; UUG fidelity: inactive; PglD inh: inactive

Results for Cn1c(=O)c(C(=O)NCc2ccc(F)cc2)c(O)c2ccccc21 ?
esBAF inh: inactive; miR-122 sensor: inactive; MITF TRPM1 HTS: inactive; Wnt bcat act: inactive; UUG fidelity: inactive; PglD inh: inactive

Results for CC(C)(C)c1ccc(C(=O)NCc2ccccc2)cc1 ?
MITF TRPM1 HTS: 88; Wnt bcat act: inactive

How did COCC#Cc1cnc2c(c1)C(=O)N([C@@H](C)CO)C[C@H](C)[C@H](CN(C)C)O2 do in these assays?
esBAF inh: inactive; miR-122 sensor: inactive; UUG fidelity: inactive; PglD inh: inactive

Results for O=C(N[C@H]1CC[C@@H](CCn2cc(-c3cccnc3)nn2)O[C@H]1CO)c1ccccc1F ?
esBAF inh: inactive; miR-122 sensor: inactive; UUG fidelity: inactive; PglD inh: inactive

Results for Clc1ccc(C#Cc2cccnc2)cc1 ?
esBAF inh: 67; miR-122 sensor: inactive; MITF TRPM1 HTS: 109; Wnt bcat act: inactive; UUG fidelity: inactive; PglD inh: inactive

How did CSc1ccc(S(=O)(=O)Nc2ccc(F)cc2)cc1 do in these assays?
esBAF inh: inactive; miR-122 sensor: 120; MITF TRPM1 HTS: inactive; Wnt bcat act: inactive

Results for CSc1ccccc1OCc1cc(C(=O)NC(C)c2cnn(C)c2)no1 (centres undefined) ?
esBAF inh: 54; miR-122 sensor: inactive; MITF TRPM1 HTS: inactive; Wnt bcat act: inactive; UUG fidelity: inactive; PglD inh: inactive

Results for CSc1ccccc1OCc1cc(C(=O)N[C@H]2CCCCNC2=O)no1 ?
esBAF inh: 66; MITF TRPM1 HTS: 96; Wnt bcat act: inactive; UUG fidelity: inactive; PglD inh: inactive

What do the screens show for `O=C(CN1CCOCC1)N[C@@H]1CC[C@H](CCNC(=O)C2CCCCC2)O[C@@H]1CO`?
esBAF inh: inactive; UUG fidelity: inactive; PglD inh: inactive

What do the screens show for `CO[C@@H](CN(C)C(=O)c1ccccc1F)[C@H](C)CN([C@@H](C)CO)S(=O)(=O)c1ccccc1`?
esBAF inh: inactive; PglD inh: inactive

How did CNC(=O)c1cc2cccc(OC)c2oc1=O do in these assays?
esBAF inh: inactive; miR-122 sensor: inactive; MITF TRPM1 HTS: inactive; UUG fidelity: inactive; PglD inh: inactive

What do the screens show for `CCOC(=O)CC(NC(=O)c1cc2cccc(OC)c2oc1=O)c1ccc(OC)cc1` (centres undefined)?
esBAF inh: 50; miR-122 sensor: inactive; MITF TRPM1 HTS: inactive; Wnt bcat act: inactive; UUG fidelity: inactive; PglD inh: inactive

How did Cc1noc(C)c1NC(=O)N(C)C[C@H]1OCCCC[C@@H](C)Oc2ccc(NC(=O)CCC(F)(F)F)cc2C(=O)N([C@H](C)CO)C[C@@H]1C do in these assays?
esBAF inh: inactive; miR-122 sensor: inactive; UUG fidelity: inactive; PglD inh: inactive

Results for CC1=Nc2ccccc2N=C(N)C1c1ccccc1 (centres undefined) ?
esBAF inh: inactive; miR-122 sensor: inactive; MITF TRPM1 HTS: inactive; Wnt bcat act: 52

What do the screens show for `Cc1c(C(=O)NC2CCOC2)oc2c(F)cccc12` (centres undefined)?
esBAF inh: 70; miR-122 sensor: inactive; MITF TRPM1 HTS: inconclusive; Wnt bcat act: inactive; UUG fidelity: inactive; PglD inh: inactive

What do the screens show for `Cc1c(C(=O)N2C[C@@H](C)O[C@@H](C)C2)oc2c(F)cccc12`?
esBAF inh: 70; miR-122 sensor: inactive; MITF TRPM1 HTS: inactive; Wnt bcat act: inactive; UUG fidelity: inactive; PglD inh: inactive

What do the screens show for `CO[C@@H]1CN(C)C(=O)c2cc(NC(=O)C3CCC3)ccc2OC[C@@H](C)NC[C@@H]1C`?
esBAF inh: inactive; miR-122 sensor: inactive; UUG fidelity: inactive; PglD inh: inactive

High-throughput results (PubChem BioAssay)
